Results on 59 substances are retold here after US20240360179A1, “STAPLED PEPTIDES AND METHODS THEREOF” (FOG PHARMACEUTICALS, INC., priority 2021, published 2024).

Chains of the proteins cited; added tags and fusions are not shown.
UniProt P35222, whole entry: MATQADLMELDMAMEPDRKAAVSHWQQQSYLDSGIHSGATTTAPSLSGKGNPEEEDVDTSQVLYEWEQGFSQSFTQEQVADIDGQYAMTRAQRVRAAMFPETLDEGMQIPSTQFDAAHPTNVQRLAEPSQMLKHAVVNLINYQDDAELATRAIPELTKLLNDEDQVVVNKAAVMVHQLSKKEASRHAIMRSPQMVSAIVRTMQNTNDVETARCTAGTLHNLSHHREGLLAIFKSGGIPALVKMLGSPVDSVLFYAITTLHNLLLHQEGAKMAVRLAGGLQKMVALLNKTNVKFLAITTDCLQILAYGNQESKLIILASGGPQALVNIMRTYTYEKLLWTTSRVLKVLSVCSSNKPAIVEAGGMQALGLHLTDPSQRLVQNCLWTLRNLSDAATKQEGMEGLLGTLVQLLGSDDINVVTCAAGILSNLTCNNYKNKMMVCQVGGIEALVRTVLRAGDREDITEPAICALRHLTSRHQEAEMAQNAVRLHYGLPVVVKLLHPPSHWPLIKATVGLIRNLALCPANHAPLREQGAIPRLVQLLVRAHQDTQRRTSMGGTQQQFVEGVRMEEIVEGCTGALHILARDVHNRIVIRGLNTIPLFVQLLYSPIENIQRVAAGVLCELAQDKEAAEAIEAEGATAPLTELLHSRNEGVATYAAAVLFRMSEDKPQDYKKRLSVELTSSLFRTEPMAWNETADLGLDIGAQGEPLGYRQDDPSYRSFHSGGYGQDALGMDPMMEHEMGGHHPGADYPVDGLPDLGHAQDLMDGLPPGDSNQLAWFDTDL

In general, IC50 refers to the point on the concentration scale where inhibition reaches its midpoint.

The experiment has as its target T1, full-length B-Catenin (Uniprot ID P35222) (Homo sapiens, UniProt P35222).
T1 construct: 10 nM full-length B-Catenin (Uniprot ID P35222)
Format: binding. The settings on record: competition fluorescence polarization; read-out: beta-Catenin FP IC50. (In fluorescence polarisation assays a small probe gives low polarisation when free and higher when bound to something large.)
For “Ac-PL3-Asp-DipA-B5-Asp-3COOHF-Phe-Ala-Phe-Lys*3-PyrS2-3Thi-34ClF-GlnR*3-Ala-NH2 [I-1115]”, the IC50 was under 50 nM.

Regarding “Ac-PL3-Asp-Npg-B5-Asp-3COOHF-Aib-Ala-Phe-TriAzLys*3-[CO][Nip]PyrSa-3Thi-BztA-sAla*3-Ala-NH2 [I-1444]”, the IC50 lay within 50 to 200 nM.

For “NPyroR3-Asp-Cha-B5-Asp-3COOHF-Aib-Ala-Phe-Lys*3-PyrS2-3Thi-34ClF-GlnR*3-NH2 [I-1555]”, the half-inhibitory concentration (IC50) was under 50 nM.

For the substance “Ac-S5-Leu-Asp-DipA-B5-Asp-3COOHF-Aib-Ala-Phe-Lys*3-PyrS1-3Thi-BztA-GlnR*3-NH2 [I-1874]”, the 50% inhibitory concentration (IC50) is under 50 nM.

Take “Ac-PL3-Asp-Cha-B5-Asp-3COOHF-CyLeu-Ala-Phe-Lys*3-PyrS2-Phe-34ClF-GlnR*3-NH2 [I-1058]”: the half-inhibitory concentration (IC50) is under 50 nM.

With “Ac-PL3-Asp-Chg-B5-Asp-3COOHF-CyLeu-Ala-Phe-Lys*3-PyrS2-3Thi-34ClF-GlnR*3-NH2 [I-1044]”, the 50% inhibitory concentration (IC50) is under 50 nM.

With “Ac-PL3-Asp-Ile-B5-Asp-3COOHF-Ala-Ala-Phe-sCH2S*3-PyrS2-Phe-34ClF-TriAzLys*3-NH2 [I-1866]”, the half-maximal inhibitory concentration (IC50) is under 50 nM.

Consider “Ac-S5-Ala-Asp-Ala-B5-Asp-3COOHF-Aib-Ala-Phe-Lys*3-PyrS2-Phe-34ClF-GlnR*3-NH2 [I-1236]”, for which the IC50 was under 50 nM.

As for “Ac-PL3-Asp-Npg-B5-Asp-3COOHF-Aib-Ala-RbiPrDF-Lys*3-PyrS2-3Thi-BztA-GlnR*3-Ala-NH2 [I-599]”, the half-inhibitory concentration (IC50) was over 1000 nM.

Turning to “Ac-PL3-Asp-Npg-B5-Asp-3COOHF-Aib-Ala-Phe-Lys*3-PyrS2-[Bnc]2NH2F-BztA-GlnR*3-Ala-NH2 [I-1660]”, the IC50 was under 50 nM.

“Ac-PL3-Asp-Npg-B5-Asp-3BOH2F-Aib-Ala-Phe-Lys*3-PyrS2-3Thi-BztA-GlnR*3-Ala-NH2 [I-1188]”: the IC50 lay in the range of 50 to 200 nM.

On to “Ac-PL3-Asp-Ile-B5-Asp-3COOHF-Aib-Ala-Phe-AsnR*3-PyrS2-Phe-34ClF-AsnS3APyr*3-NH2 [I-1422]”, for which the half-inhibitory concentration (IC50) was under 50 nM.

“Ac-PL3-Asp-Npg-B5-Asp-3COOHF-Aib-Ala-Phe-[Mxyl]Cys-PyrS2-3Thi-BztA-Cys-Ser-NH2 [I-1519]”: the IC50 was under 50 nM.

Regarding “Ac-PL3-Asp-Npg-B5-Asp-3COOHF-Aib-Ala-Phe-TriAzLys*3-[CO][dNip]PyrSa-3Thi-BztA-sAla*3-Ala-NH2 [I-1445]”, the 50% inhibitory concentration (IC50) lay in the range of 50 to 200 nM.

Regarding “Ac-PL3-Asp-Ile-B5-Asp-3COOHF-Aib-Ala-Phe-Lys*3-PyrS2-3Thi-4F3MeF-GlnR*3-NH2 [I-1615]”, the IC50 is under 50 nM.

For the substance “Ac-PL3-Asp-Npg-B5-Asp-3COOHF-Aib-Ala-Phe-[mXyl]Cys-PyrS2-3Thi-BztA-aMeC-Ala-NH2 [I-1386]”, the IC50 was in the range of 50 to 200 nM.

“Ac-PL3-Asp-DipA-B5-Asp-3COOHF-CyhLeu-Ala-Phe-Lys*3-PyrS2-3Thi-BztA-GlnR*3-Ala-NH2 [I-851]”: the IC50 was under 50 nM.

With “Ac-PL3-Asp-Ile-B5-Asp-3COOHF-Aib-Ala-Phe-TriAzLys*3-PyrS2-Phe-34ClF-sAla*3-NH2 [I-1094]”, the IC50 was under 50 nM.

Take “Ac-PL3-Asp-Ile-B5-Asp-3COOHF-Aib-Ala-Phe-Lys*3-PyrS2-Phe-34ClF-GlnR*3-Ser-Ser-Leu-NH2 [I-1360]”: the IC50 was under 50 nM.

As for “Ac-PL3-Asp-Npg-B5-Asp-3COOHF-Aib-Ala-Phe-Lys*3-PyrS2-[NdiMeButC]2NH2F-BztA-GlnR*3-Ala-NH2 [I-1750]”, the IC50 fell in the range of 50 to 200 nM.

On to “Ac-PL3-Asp-Npg-B5-Asp-3COOHF-[diaminopropane]GlnR-Ala-Phe-Leu-PyrS2-2F3MeF-BztA-GlnR-NH2 [I-703]”, for which the concentration for half-maximal inhibition (IC50) was 50 to 200 nM.

As for “Ac-PL3-Asp-Npg-B5-Asp-3COOHF-Aib-Ala-Phe-Lys*3-PyrS2-Phe-7MeBztA-GlnR*3-Ala-NH2 [I-1251]”, the half-inhibitory concentration (IC50) was under 50 nM.

On to “Ac-Ala-Ala-S5-Ser-Asp-Npg-B5-Asp-3COOHF-Aib-Ala-Phe-Lys*3-PyrS2-3Thi-BztA-GlnR*3-Ala [I-1287]”, for which the 50% inhibitory concentration (IC50) fell in the range of 50 to 200 nM.

Consider “Ac-PL3-Asp-Leu-B5-Asp-Asp-Ala-Ala-Phe-dLys*3-PyrS2-3Thi-BztA-GlnR*3-NH2 [I-2]”, for which the IC50 is under 50 nM.

As for “Ac-S5-Val-Asp-Chg-B5-Asp-3COOHF-Aib-Ala-Phe-Lys*3-PyrS2-Phe-34ClF-GlnR*3-NH2 [I-1622]”, the IC50 was under 50 nM.

Consider “Ac-PL3-Asp-Npg-B5-Asp-3COOHF-Aib-Ala-Phe-Lys*3-PyrS2-[6QuiAc]2NH2F-BztA-GlnR*3-Ala-NH2 [I-1739]”, for which the IC50 is under 50 nM.

Turning to “Ac-PL3-Asp-DipA-B5-Asp-3COOHF-Thr-Ala-Phe-Lys*3-PyrS2-Phe-BztA-GlnR*3-dPro-NH2 [I-1856]”, the IC50 is under 50 nM.

As for “Ac-PL3-Asp-Npg-B5-Asp-3COOHF-Aib-Ala-Phe-Lys*3-PyrS2-[4FPyr3c]2NH2F-BztA-GlnR*3-Ala-NH2 [I-1764]”, the concentration for half-maximal inhibition (IC50) was under 50 nM.

With “Ac-PL3-Asp-DipA-B5-Asp-3COOHF-CyLeu-Ala-Phe-Lys*3-PyrS2-3Thi-34ClF-GlnR*3-NH2 [I-1117]”, the IC50 was under 50 nM.

On to “Ac-PL3-Asp-Ile-B5-Asp-3COOHF-Aib-Ala-Phe-Lys*3-PyrS2-Phe-4ClF-GlnR*3-NH2 [I-1600]”, for which the IC50 is under 50 nM.

In the case of “Ac-PL3-Asp-Npg-B5-Asp-3COOHF-Aib-Ala-Phe-Lys*3-PyrS2-hnLeu-SbMeBzta-GlnR*3-Ala-NH2 [I-773]”, the IC50 lay within 50 to 200 nM.

As for “Ac-PL3-Asp-Chg-B5-Asp-3COOHF-Ala-Ala-Phe-Lys*3-PyrS2-2MeF-34ClF-GlnR*3-NH2 [I-1518]”, the IC50 is under 50 nM.

As to “Ac-PL3-Asp-Ile-B5-Asp-3COOHF-Aib-Ala-Phe-Lys*3-PyrS2-Phe-3BrF-GlnR*3-NH2 [I-1604]”, the IC50 is under 50 nM.

As for “Ac-PL3-Asp-Ile-B5-Asp-3COOHF-GlnMePDA*3-Ala-Phe-Ala-PyrS2-Phe-34ClF-GlnR*3-NH2 [I-1800]”, the IC50 fell in the range of 200 to 750 nM.

As for “Ac-PL3-Asp-Ile-B5-Asp-3COOHF-Aib-Ala-Phe-GlnR*3-PyrS2-Phe-34ClF-GlnEDA*3-NH2 [I-1378]”, the half-maximal inhibitory concentration (IC50) was under 50 nM.

For the substance “Ac-PL3-Asp-Ile-B5-Asp-3COOHF-Aib-Ala-Phe-GlnR*3-PyrS2-Phe-34ClF-Lys*3-NH2 [I-1367]”, the IC50 is under 50 nM.

On to “Ac-PL3-Asp-Leu-B5-Asp-3COOHF-GlnMeBDA*3-Ala-Phe-Ala-PyrS2-Phe-34ClF-GlnR*3-NH2 [I-1825]”, for which the half-maximal inhibitory concentration (IC50) was under 50 nM.

For “Ac-PL3-Asp-Npg-B5-Asp-3COOHF-Aib-Ala-Phe-Lys*3-PyrS2-Phe-7FBztA-GlnR*3-NH2 [I-1245]”, the IC50 is under 50 nM.

On to “Ac-PL3-Asp-Ile-B5-Asp-3COOHF-Aib-Ala-Phe-Lys*3-PyrS2-Phe-34ClF-GlnR*3-Ala-Ala-[mPEG16]Lys-NH2 [I-1407]”, for which the IC50 is under 50 nM.

Regarding “Ac-S5-Ala-Ser-Npg-B5-Asp-3COOHF-Aib-Ala-Phe-Lys*3-PyrS2-3Thi-BztA-GlnR*3-Ala-NH2 [I-1195]”, the IC50 was 200 to 750 nM.

As to “4THPCO-PL3-Asp-Ile-B5-Asp-3COOHF-Aib-Ala-Phe-Lys*3-PyrS2-3Thi-34ClF-GlnR*3-NH2 [I-1592]”, the 50% inhibitory concentration (IC50) is under 50 nM.

Consider “Ac-PL3-Asp-Npg-B5-Asp-3COOHF-Aib-Ala-Phe-Lys*3-PyrS2-hnLeu-RbMe2NapA-GlnR*3-Ala-NH2 [I-769]”, for which the IC50 was under 50 nM.

“Ac-PL3-Asp-Chg-B5-Asp-3COOHF-Aib-Ala-Phe-Lys*3-PyrS2-2MeF-34ClF-GlnR*3-NH2 [I-1517]”: the half-maximal inhibitory concentration (IC50) was 200 to 750 nM.

With “5PymCO-PL3-Asp-Npg-B5-Asp-3COOHF-Aib-Ala-Phe-Lys*3-PyrS2-3Thi-BztA-GlnR*3-Ala-NH2 [I-910]”, the IC50 is under 50 nM.

Consider “Ac-PL3-Thr-DipA-B5-Asp-3COOHF-nLeu-Ala-Phe-Lys*3-PyrS2-3Thi-BztA-GlnR*3-NH2 [I-1682]”, for which the IC50 was in the range of 200 to 750 nM.

“Ac-S6-Leu-Asp-DipA-B5-Asp-3COOHF-Aib-Ala-Phe-Lys*3-PyrS1-3Thi-BztA-GlnR*3-NH2 [I-1939]”: the IC50 was under 50 nM.

Take “Ac-PL3-Asp-Npg-B5-Asp-TfeGA-Aib-Ala-Phe-Lys*3-PyrS2-Phe-34ClF-GlnR*3-Leu-Ser-NH2 [I-886]”: the IC50 was under 50 nM.

For “Ac-PL3-Asp-Npg-B5-Asp-TfeGA-Aib-Ala-Phe-Lys*3-PyrS2-3Thi-34ClF-GlnR*3-Ala-NH2 [I-882]”, the half-maximal inhibitory concentration (IC50) was under 50 nM.

“2PyzCO-PL3-Asn-DipA-B5-Asp-3COOHF-CyLeu-Ala-Phe-Lys*3-PyrS2-3Thi-34ClF-GlnR*3-NH2 [I-1734]”: the half-inhibitory concentration (IC50) is under 50 nM.

With “Ac-PL3-Asp-Npg-B5-Asp-3COOHF-Aib-Ala-Phe-Lys*3-PyrS2-hCha-34ClF-GlnR*3-Ala-NH2 [I-1322]”, the IC50 is under 50 nM.

Take “Ac-PL3-Asp-Npg-B5-Asp-3COOHF-Aib-Ala-Phe-Lys*3-PyrS2-3Thi-BztA-GlnR*3-Thr-Ser-Thr-Pro-NH2 [I-1476]”: the IC50 is under 50 nM.

For “Ac-S6-Ala-Asp-Cha-B5-Asp-3COOHF-Aib-Ala-Phe-Lys*3-PyrS2-Phe-34ClF-GlnR*3-NH2 [I-1624]”, the half-maximal inhibitory concentration (IC50) is under 50 nM.

Take “Ac-PL3-Asp-Chg-B5-Asp-3COOHF-Ala-Ala-Phe-Lys*3-PyrS2-2ClF-34ClF-GlnR*3-NH2 [I-1506]”: the IC50 was under 50 nM.

On to “Ac-S5-Ala-Asp-Ile-B5-Asp-3COOHF-Ala-Ala-Phe-Lys*3-PyrS2-Phe-34ClF-GlnR*3-Ala-NH2 [I-1239]”, for which the half-maximal inhibitory concentration (IC50) was under 50 nM.

Turning to “Ac-PL3-Asp-Ile-B5-Asp-3COOHF-Aib-Ala-Phe-GlnR*3-PyrS2-Phe-34ClF-GlnMe2EDA*3-NH2 [I-1414]”, the IC50 was under 50 nM.

In the case of “Ac-PL3-Asp-Npg-B5-Asp-3COOHF-Ala-Ala-Phe-Lys*3-PyrS2-Phe-BztA-GlnR*3-Ala-NH2 [I-1244]”, the IC50 was under 50 nM.

With “Ac-PL3-Asp-Ile-B5-Asp-3COOHF-Aib-Ala-Phe-GlnR*3-PyrS2-Phe-34ClF-1MeK*3-NH2 [I-1370]”, the IC50 is under 50 nM.

Consider “Ac-PL3-Asp-Leu-B5-Asp-3COOHF-GlnR*3-Ala-Phe-Leu-PyrS2-Phe-34ClF-GlnT4CyMe*3-NH2 [I-1838]”, for which the half-inhibitory concentration (IC50) is under 50 nM.

As to “123TriAc-PL3-Asp-Npg-B5-Asp-3COOHF-Aib-Ala-Phe-Lys*3-PyrS2-3Thi-BztA-GlnR*3-Ala-NH2 [I-1068]”, the 50% inhibitory concentration (IC50) was under 50 nM.
